pIC50: −log10 of the molar value.

Chains of the proteins cited; added tags and fusions are not shown.
UniProt Q9UDY8, whole entry: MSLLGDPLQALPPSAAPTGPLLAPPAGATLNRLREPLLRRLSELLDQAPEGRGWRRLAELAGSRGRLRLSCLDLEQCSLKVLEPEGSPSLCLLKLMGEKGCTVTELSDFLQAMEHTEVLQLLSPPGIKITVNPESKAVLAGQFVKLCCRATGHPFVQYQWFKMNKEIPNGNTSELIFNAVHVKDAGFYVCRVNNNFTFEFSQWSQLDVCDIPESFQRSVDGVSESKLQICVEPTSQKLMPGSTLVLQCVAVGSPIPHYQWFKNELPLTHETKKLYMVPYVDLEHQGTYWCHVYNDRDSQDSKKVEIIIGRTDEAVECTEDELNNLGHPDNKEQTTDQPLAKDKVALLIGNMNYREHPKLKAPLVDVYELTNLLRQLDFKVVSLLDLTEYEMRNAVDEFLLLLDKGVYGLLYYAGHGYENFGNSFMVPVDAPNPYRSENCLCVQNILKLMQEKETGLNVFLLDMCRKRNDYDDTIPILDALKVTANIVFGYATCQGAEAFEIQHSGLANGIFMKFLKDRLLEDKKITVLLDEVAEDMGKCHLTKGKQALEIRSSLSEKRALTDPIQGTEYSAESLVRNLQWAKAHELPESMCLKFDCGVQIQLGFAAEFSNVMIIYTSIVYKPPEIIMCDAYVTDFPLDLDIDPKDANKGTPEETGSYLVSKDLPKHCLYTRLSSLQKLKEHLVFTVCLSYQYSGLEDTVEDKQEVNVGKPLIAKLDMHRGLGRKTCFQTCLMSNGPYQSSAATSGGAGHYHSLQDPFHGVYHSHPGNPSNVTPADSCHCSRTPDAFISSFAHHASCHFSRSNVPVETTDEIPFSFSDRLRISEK

In the test the target is recombinant GST fusion MALT1 (human MALT1) (Homo sapiens (Human), UniProt Q9UDY8). Kind of test: Evaluation of inhibition of protease activity of MALT1 (cleavage of fluorescent peptide substrate Ac-LRSR-AMC). The settings on record: substrate Ac-LRSR-AMC 20 μmol/L, 30° C. for 80 minutes. As for the experimental part: The guanidine derivative (I) or the pharmacologically acceptable salt thereof was evaluated for its inhibition of the protease activity of MALT1 in an in vitro experimental system in accordance with the method described in the literature (Cancer Cell, 2012, Vol. 22, p. 825-837). Specifically, the evaluation was conducted by measuring the degree of reduction in fluorescence value by the compound relative to elevation in fluorescence value resulting from the cleavage of a fluorescently labeled artificial peptide substrate by recombinant MALT1.
A) Preparation of Recombinant GST Fusion MALT1:
Full-length cDNA of human MALT1 gene (GenBank accession No: AB026118.1) amplified by PCR was inserted in flame to a SalI site located downstream of GST gene in a pGEX6P3 vector (GE Healthcare Japan Corp.) to prepare a vector (hereinafter, referred to as a pGEX6P3-MALT1 vector). Subsequently, E. coli for protein expression (BL21-RIL-codon plus-DE3, Agilent Technologies, Inc.) was transformed with the pGEX6P3-MALT1 vector and then analyzed by ampicillin resistance screening and colony PCR to obtain an E. coli strain expressing recombinant GST fusion MALT1. […]
The fluorescence value of the first measurement was defined as “F1”, and the fluorescence value of the second measurement was defined as “F2”. […]

As a reminder, the pIC50 is the IC50 on a negative log10 scale, so that one unit is a factor of ten. On to `NC(=NS(=O)(=O)c1ccccc1)NCc1cc(-c2ccc(Cl)cc2)c(-c2ccc(Cl)cc2)cn1`, for which the pIC50 is 6.72.

Regarding `NC(=NC(=O)c1ccccc1)NCc1cc(-c2ccc(Cl)cc2)c(-c2ccc(Cl)cc2)cn1`, the pIC50 is 6.76.

Source of the values: patent US10662156B2, “Guanidine derivative and medical use thereof” (Toray Industries, Inc., priority 2016, dated 2020).
